The numbers were not newly measured in publication PMC11852235, “Discovery of Effective Inhibitors Against Phosphodiesterase 9, a Potential Therapeutic Target of Alzheimer’s Disease with Antioxidant Capacities” (Antioxidants, 2025), which cites them from elsewhere.

This data set has as its system PDE9. To be noted: read-out: PDE9 IC50; Figure 1, current PDE9 inhibitors; cited from earlier work.

For orientation: IC50 means the point on the concentration scale where inhibition reaches its midpoint. In the case of `C[C@@H]1CN(Cc2ncccn2)C[C@H]1c1nc2c(cnn2C2CCOCC2)c(=O)[nH]1`, the concentration for half-maximal inhibition (IC50) is 8.3 nM.
